According to article PMC5598417 (Toxicology Reports, 2014):

System: MA-10 cells
Assay: Basal testosterone secretion by MA-10 Leydig cells
Assay type: cell-based, murine
Conditions: cAMP 100 μM or LH 10 ng/mL (8.5 IU/mL); 48-h exposure

## LH: gonadotropin luteinizing hormone used to stimulate Leydig cells to produce T
  increase in T secretion compared to vehicle-treated cells: 215 fold
